Results on 13 compounds are retold here after US9206198B2, “Inhibitors of the renal outer medullary potassium channel” (Merck Sharp & Dohme Corp., priority 2012, dated 2015).

Amino acid sequences for entries named in this document (tags omitted).
UniProt P48048, whole entry: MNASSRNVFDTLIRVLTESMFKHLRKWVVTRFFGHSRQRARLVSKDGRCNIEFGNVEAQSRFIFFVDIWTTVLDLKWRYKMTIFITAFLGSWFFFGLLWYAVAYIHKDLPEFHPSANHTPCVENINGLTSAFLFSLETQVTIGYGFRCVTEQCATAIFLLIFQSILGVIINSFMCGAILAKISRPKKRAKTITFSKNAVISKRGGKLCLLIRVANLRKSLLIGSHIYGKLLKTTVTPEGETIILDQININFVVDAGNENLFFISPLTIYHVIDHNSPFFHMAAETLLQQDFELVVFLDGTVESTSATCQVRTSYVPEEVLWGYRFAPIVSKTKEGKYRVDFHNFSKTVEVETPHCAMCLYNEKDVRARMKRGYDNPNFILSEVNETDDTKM

In experiment [1] the target is hROMK (hKir1.1) (Homo sapiens (Human), UniProt P48048). The experiment can be described thus: Thallium Flux Assay (ROMK channel functional thallium flux assay, FLIPR-Tetra). Type of experiment: cell-based. The note with it: read-out: Thallium Flux IC50; HEK293 cells stably expressing hROMK.
Experiment [2] concerns the target Kir1.1 (ROMK1) (Homo sapiens (Human), UniProt P48048). The experiment can be described thus: Electrophysiology Assay (whole cell voltage clamp, IonWorks Quattro). The note with it: read-out: Electrophysiology IC50; Chinese hamster ovary cells stably expressing Kir1.1; block during voltage step to 0 mV. For orientation: The patch-clamp technique gives a direct electrical read-out from membranes.

As usually defined, the IC50 is the concentration that inhibits the measured activity by half.

With `Cc1c([C@@H](O)CN2[C@@H]3CC[C@H]2C[C@]2(CCN(C4=CC(=O)OC4)C2=O)C3)ccc2c1COC2=O`, the half-inhibitory concentration (IC50) in experiment [1] came out at 20 nM; in experiment [2], 4 nM.

As to `CC1=C(N2CC3(CCN(C[C@H](O)c4ccc5c(c4C)COC5=O)CC3)CC2=O)COC1=O`, the IC50 in experiment [1] was 110 nM.

As for `Cc1c([C@@H](O)CN2CCC3(CC2)CCN(C2=CC(=O)OC2C)C3=O)ccc2c1COC2=O` (single isomer, unassigned) [12], the IC50 was determined as 140 nM in experiment [1] and 30 nM in experiment [2].

In the case of `Cc1c([C@@H](O)CN2CCC3(CC2)CCN(C2=CC(=O)OC2)C3)ccc2c1COC2=O`, the figures for the half-inhibitory concentration (IC50) in experiment [1] and in experiment [2] were 200 nM and 30 nM, respectively.

As to `COC1CN(C2=C(C)C(=O)OC2)C(=O)C12CCN(C[C@H](O)c1ccc3c(c1C)COC3=O)CC2` (single isomer, unassigned) [34], the half-inhibitory concentration (IC50) in experiment [1] is 90 nM.

Regarding `CC1=C(N2CC[C@]3(C[C@H]4CC[C@@H](C3)N4C[C@H](O)c3ccc4c(c3C)COC4=O)C2=O)COC1=O`, the IC50 in experiment [1] was 10 nM.

As to `Cc1c([C@@H](O)CN2CCC3(CC2)CC(=O)N(C2=CC(=O)OC2)C3)ccc2c1COC2=O`, the IC50 stood at 170 nM in experiment [1] and 50 nM in experiment [2].

Consider `Cc1c([C@@H](O)CN2CCC3(CC2)CCN(C2=CC(=O)OC2C)C3=O)ccc2c1COC2=O` (single isomer, unassigned) [11], for which the half-inhibitory concentration (IC50) was 120 nM in experiment [1] and 20 nM in experiment [2].

On to `CCC1=C(N2CCC3(CCN(C[C@H](O)c4ccc5c(c4C)COC5=O)CC3)C2=O)COC1=O`, for which the IC50 in experiment [1] was 80 nM; in experiment [2] it was 20 nM.

On to `CC1=C(N2CCC3(CCN(C[C@H](O)c4ccc5c(c4C)COC5=O)CC3)C2=O)C(C)OC1=O` (single isomer, unassigned) [13], for which the figures for the IC50 in experiment [1] and in experiment [2] were 490 nM and 60 nM, respectively.

Consider `CC1=C(N2CC[C@@]3(C[C@H]4CC[C@@H](C3)N4C[C@H](O)c3ccc4c(c3C)COC4=O)C2=O)COC1=O`, for which the half-maximal inhibitory concentration (IC50) in experiment [1] was determined as 40 nM.

On to `COC1CN(C2=C(C)C(=O)OC2)C(=O)C12CCN(C[C@H](O)c1ccc3c(c1C)COC3=O)CC2` (single isomer, unassigned) [35], for which the IC50 in experiment [1] was 70 nM.

Turning to `CC1=C(N2CCC3(CCN(C[C@H](O)c4ccc5c(c4C)COC5=O)CC3)C2=O)C(C)OC1=O` (single isomer, unassigned) [14], the results for the concentration for half-maximal inhibition (IC50) in experiment [1] and in experiment [2] were 380 nM and 100 nM, respectively.
